Laboratory results from patent US20240239761A1, “BICYCLIC PHENOL COMPOUNDS AND USE THEREOF” (MEDSHINE DISCOVERY INC., priority 2021, published 2024).

Sequences of proteins named here, by UniProt entry; tags and fusion partners are left off. A line that says so, or that is headed by a name, gives the form on record, which may keep a tag or linker. Residues count along the entry.
UniProt P10828, whole entry: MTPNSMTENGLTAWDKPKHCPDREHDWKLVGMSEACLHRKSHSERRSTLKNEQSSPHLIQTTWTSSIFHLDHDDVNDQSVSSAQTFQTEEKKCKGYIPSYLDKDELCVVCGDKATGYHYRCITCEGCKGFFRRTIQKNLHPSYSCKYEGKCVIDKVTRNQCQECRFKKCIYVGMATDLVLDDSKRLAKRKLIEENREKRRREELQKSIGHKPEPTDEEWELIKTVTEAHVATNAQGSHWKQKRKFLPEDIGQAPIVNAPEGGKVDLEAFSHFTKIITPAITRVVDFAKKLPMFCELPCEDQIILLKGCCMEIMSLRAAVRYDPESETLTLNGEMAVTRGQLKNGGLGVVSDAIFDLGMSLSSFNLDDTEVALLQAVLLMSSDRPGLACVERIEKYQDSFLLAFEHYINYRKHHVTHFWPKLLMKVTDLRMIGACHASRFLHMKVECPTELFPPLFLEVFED
UniProt P10827, 1-370 with tags or gaps limits assumed: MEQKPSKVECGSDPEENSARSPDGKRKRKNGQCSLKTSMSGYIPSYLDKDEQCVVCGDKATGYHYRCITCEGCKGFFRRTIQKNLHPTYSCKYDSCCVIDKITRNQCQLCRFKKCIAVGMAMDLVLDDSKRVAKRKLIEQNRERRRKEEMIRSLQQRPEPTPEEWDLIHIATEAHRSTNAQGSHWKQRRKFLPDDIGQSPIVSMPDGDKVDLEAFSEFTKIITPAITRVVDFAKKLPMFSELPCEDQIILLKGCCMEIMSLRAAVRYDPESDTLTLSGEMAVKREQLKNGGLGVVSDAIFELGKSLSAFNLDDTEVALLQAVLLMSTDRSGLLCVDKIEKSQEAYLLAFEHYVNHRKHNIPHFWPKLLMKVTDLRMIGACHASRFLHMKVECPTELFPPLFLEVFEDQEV

Legend:
THRβ = THRβ (Homo sapiens, UniProt P10828); assay: GeneBLAzer TR beta-UAS-bla HEK 293T cell-based agonist assay; conditions: TR beta-UAS-bla HEK 293T cells; for THRß maximum agnostic capability: T3 as positive control; for EC50: read-out: THRß EC50, 16 hours incubation
THRα = THRα (Homo sapiens (Human), UniProt P10827); assay: GeneBLAzer TR alpha-UAS-bla HEK 293T cell-based agonist assay; conditions: TR alpha-UAS-bla HEK 293T cells; for THRα maximum agnostic capability: T3 as positive control; for EC50: read-out: THRα EC50, 22 hours incubation

SMILES	THRß maximum agnostic capability (THRβ)	EC50 (THRβ)	THRα maximum agnostic capability (THRα)	EC50 (THRα)
COC1CCCc2c(Cc3c(C)cc(NC(=O)c4noc(=O)[nH]4)cc3C)ccc(O)c21 (single isomer, unassigned) [WX008]	94%	119 nM	79%	403 nM
CCOC1CCCc2c(Cc3c(C)cc(NC(=O)c4noc(=O)[nH]4)cc3C)ccc(O)c21 (single isomer, unassigned) [WX010]	94%	9.95 nM	90%	93 nM
CCOC1CCCc2c(Cc3c(C)cc(NC(=O)c4noc(=O)[nH]4)cc3C)ccc(O)c21 (single isomer, unassigned) [WX011]	97%	13 nM	73%	65.5 nM
COC1CCCc2c(Cc3c(C)cc(NC(=O)c4noc(=O)[nH]4)cc3C)ccc(O)c21 (single isomer, unassigned) [WX009]	93%	154 nM	83%	773 nM
Cc1cc(NC(=O)c2noc(=O)[nH]2)cc(C)c1Cc1ccc(O)c2c1CCCC2C (single isomer, unassigned) [WX003]	93%	27.6 nM	88%	149 nM
Cc1cc(NC(=O)c2noc(=O)[nH]2)cc(C)c1Cc1ccc(O)c2c1CCCC2C (single isomer, unassigned) [WX004]	94%	9.07 nM	96%	76.2 nM
